Measured values: US11104735B2, “Inhibition of cytokine-induced SH2 protein in NK cells” (The Walter and Eliza Hall Institute of Medical Research, priority 2015, dated 2021)

Chains of the proteins cited; added tags and fusions are not shown. Residues count along the entry.
UniProt P23458, 875-1153 limits assumed: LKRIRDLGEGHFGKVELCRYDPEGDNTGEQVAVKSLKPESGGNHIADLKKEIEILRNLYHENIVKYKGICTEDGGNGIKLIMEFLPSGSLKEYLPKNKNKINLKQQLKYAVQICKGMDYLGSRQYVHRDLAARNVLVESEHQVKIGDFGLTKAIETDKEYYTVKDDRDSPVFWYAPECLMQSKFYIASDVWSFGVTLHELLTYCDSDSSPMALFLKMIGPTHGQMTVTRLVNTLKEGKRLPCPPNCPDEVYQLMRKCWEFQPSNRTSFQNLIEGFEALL

Legend:
JAK1 = JAK1 (Homo sapiens, UniProt P23458); experiment: In vitro kinase inhibition assay, JAK1 kinase domain (JH1) with STAT5b substrate peptide; type: biochemical; conditions: JAK1 JH1, in vitro kinase reaction; unit inferred
Method: Protein kinase assays, including high throughput kinase assays are known in the art as described in, e.g., in Babon et al. (2013) and Von Ahsen et al. (2005). In one exemplary embodiment 130 μM STAT5b peptide (SEQ ID NO:18 RRAKAADGYVKPQIKQVV) is incubated with 5 nM human JAK1 (see SEQ ID NO:11 for corresponding amino acid sequence) at 25° C. for 30-60 min in 20 mM Tris pH 8.0, 100 mM NaCl, 5 mM 2-mercaptoethanol, 0.2 mg ml^−1 bovine serum albumin, 2 mM MgCl2, 100 μM ATP and 1 μCi γ-[^32P]ATP. Recombinant trimeric complex CIS-SH2-Elongin B-Elongin C (see SEQ ID NOs:7, 14, and 15 for the corresponding amino acid sequences) is present at concentrations ranging from 0-30 μM. After incubation, the reaction is spotted onto P81 phosphocellulose paper and quenched in 5% H3PO4. The paper is then washed (4×200 ml, 15 min) with 5% H3PO4 and exposed to a phosphorimager plate. Quantitation is performed using phosphorimager software and IC50 curves are then calculated based on integrated pixel counts.
Kinase inhibition assays were performed essentially as described (Babon et al., 2012). […] Quantitation was performed using Fuji software and IC50 curves calculated using Graphpad Prism.

RMA-S cells = experiment: RMA-S i.p. lymphoma model; type: in vivo, mouse; conditions: Cish−/− vs WT mice, 100,000 IU i.p. days 0-4
Method: (A) Groups of 5-6 B6.WT (Cish^+/+) or B6.Cish^−/− mice were injected i.v. with 2×10^5 B16F10 melanoma cells and treated with either control Ig (cIg) (250 μg i.p. on days 0, 3 and 6), anti-PD-1 (250 μg i.p. on days 0, 3 and 6), mouse IFN-αβ (25 μg i.p. on days 0, 1, 2 and 3) or recombinant IL-2 (10,000 IU i.p. on days 0, 1, 2 and 3). (B) Groups of 5-11 B6.WT (Cish^+/+) or B6.Cish^−/− mice were injected i.v. with 7.5×10^5 B16F10 melanoma cells and treated with either cIg (250 μg i.p. on days 0, 3 and 6), anti-PD1/anti-CTLA-4 combination (250 μg i.p. each on days 0, 3 and 6), or recombinant IL-2 (10,000 IU i.p. on days 0, 1, 2, 3 and 4). (C) Groups of 7-10 B6.WT (Cish^+/+) and B6.Cish^−/− mice were injected i.p. with 1×10^5 parental RMA-S cells and treated with either PBS or recombinant IL-2 (100,000 IU i.p. on days 0, 1, 2, 3 and 4). Mice were monitored for tumor development and were euthanized at the point of abdominal swelling and discomfort. Improved survival between groups was assessed by the Log-rank Mantel-Cox test. (D) Groups of 5-15 B6.WT (Cish^+/+) or B6.Cish^−/− mice were injected i.v. with 5×10^5 RM-1 prostate carcinoma cells and treated with either cIg, anti-CD96, anti-PD-1, anti-CTLA-4 or anti-PD1/anti-CTLA-4 combination (250 μg i.p. each on days 0 and 3). […]

B16F10 melanoma cells = experiment: B16F10 experimental lung metastasis; type: in vivo, mouse; conditions: vs cIg
Method: FIG. 4—Loss of Cish controls experimental lung tumour metastases. Cish^+/+ and Cish^−/− mice were injected i.v. with (a) 3×10^5 B16F10 melanoma cells or (b) 2×10^5 B16F10 melanoma and treated on days −1, 0 and 6 relative to tumour inoculation with either control Ig (cIg), anti-CD8 (αCD8; CD8 T cell depletion), anti-asialoGM1 (αasGM1; NK cell depletion) or anti-IFNγ (αIFNγ; neutralising), antibodies. Mice were sacrificed day 14 post-tumour injection. (c) NK cell-deficient (Ncr1^Mcl1Δ/Δ) mice were injected i.v. with 3×10^6 in vitro expanded Cish^+/+ or Cish^−/− NK cells or PBS, 8 h prior to injection with 1×10^5 B16F10 melanoma cells. Mice received a second injection of 1.5×10^6 in vitro expanded Cish^+/+ or Cish^−/− NK cells or PBS, 24 h post-tumour inoculation and were sacrificed at day 18 post-tumour injection. (a-c) The metastatic burden (mets) was quantified in the lungs by counting colonies on the lung surface. (d) Cish^+/+ Cish^−/− and Ncr1^Mcl1Δ/Δ (NK-null) mice were injected i.v. with 5×10^5 E0771 mCherry^+ breast cancer cells and lung metastasis analysed by IVIS (fluorescence emission; left panels) or H&E stained histological sections (right panels). (e) 1×10^5 E0771 cells were implanted into the mammary fat pad of Cish^+/+ and Cish^−/− mice and tumour size measured over time. (f) Orthotopic E0771 tumours generated as in (e) were surgically removed at 400-600 mm^3 and spontaneous lung metastases measured in the lungs 14 days later by IVIS and RT-PCR for mCherry mRNA expression. (g) Cish^+/+ and Cish^−/− mice were injected i.v. with B16F10 lung carcinoma (7.5×10^5 cells). On days 0, 3 and 6 relative to tumour inoculation, mice received either control Ig or combination anti-PD-1/anti-CTLA-4 antibodies. The metastatic burden was quantified after 13 days by counting colonies on the lung surface. Mean±S.E.M. and all data (n) are shown. […] Significant differences between groups were determined by a (a, c, g) Mann-Whitney U test (b) Kruskal Wallis with post Dunn's test or (e) Mantel-Cox test. […]

Row | Substance | IC50 (JAK1) [µM] | Survival in RMA-S lymphoma model (RMA-S cells) | B16F10 lung metastases (B16F10 melanoma cells; Cish+/+ (WT) mice, high dose 7.5×10^5 cells i.v.) | B16F10 lung metastases (B16F10 melanoma cells; Cish−/− mice, 2×10^5 cells i.v.) | B16F10 lung metastases (B16F10 melanoma cells; Cish−/− mice, high dose 7.5×10^5 cells i.v.)
1 | full-length CIS: human full-length CIS protein expressed with elongins B and C as trimeric complex | ~32.3 | – | – | – | –
2 | IL-2: recombinant IL-2 cytokine | – | improved effect | ineffective | appeared to further reduce metastasis | more effective than cIg; also recorded: effective

Entries after “also recorded” stand apart in the source; their conditions may differ.
